These results are taken from ChEMBL document CHEMBL2406932, “Heteroaromatic and aniline derivatives of piperidines as potent ligands for vesicular acetylcholine transporter” (J Med Chem, 2013).

Chains of the proteins cited; added tags and fusions are not shown.
UniProt Q60492, whole entry: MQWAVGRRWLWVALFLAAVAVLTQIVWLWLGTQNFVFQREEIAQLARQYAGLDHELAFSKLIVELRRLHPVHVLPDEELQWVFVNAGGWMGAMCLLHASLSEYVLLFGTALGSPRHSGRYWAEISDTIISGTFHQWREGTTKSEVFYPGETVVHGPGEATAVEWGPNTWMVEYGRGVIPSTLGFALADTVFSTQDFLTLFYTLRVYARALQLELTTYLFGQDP

In assay [1] the target is Sigma non-opioid intracellular receptor 1 (Cavia porcellus, UniProt Q60492). The experiment in a line: Displacement of (+)- [3H]pentazocine from sigma 1 receptor expressed in guinea pig brain membrane homogenates by scintillation counting analysis. The class given is cell membranes. Put shortly:
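Guinea pig brain membrane homogenate (~300 µg protein) with ~5 nM (+)-[3H]pentazocine, 90 min at room temperature in 50 mM Tris-HCl, 150 mM NaCl, pH 7.4. Nonspecific binding taken with 10 µM haloperidol. Stopped with ice-cold wash buffer, then rapid filtration and washes. IC50 from nonlinear regression, one-site fit.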

Assay [2] deals with PC-12. The experiment in a line: Selectivity ratio, ratio of Ki for sigma 2 receptor in rat liver homogenates to Ki for human VAChT expressed in rat PC12 cells. The class given is cell-based.
In assay [3] the test system is PC-12. The experiment in a line: Selectivity ratio, ratio of Ki for sigma 1 receptor in guinea pig brain homogenates to Ki for human VAChT expressed in rat PC12 cells. The class given is cell-based. In short, it runs like this: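 Sigma-1 binding used guinea pig brain membranes (~300 µg protein) with ~5 nM (+)-[3H]pentazocine, 90 min at room temperature; nonspecific binding was set with 10 µM haloperidol. […] The index is Ki(σ1)/Ki(VAcHT).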

Turning to `Cc1ccc(C(=O)C2CCN([C@@H]3Cc4c(N)cccc4C[C@H]3O)CC2)cn1` (racemic), in assay [1], the inhibition constant (Ki) (in general, a measure of affinity in units of concentration, obtained from inhibition or displacement) was found to be 11.4 µM.

As to `Cc1ccc(C(=O)C2CCN([C@@H]3Cc4ccccc4C[C@H]3O)CC2)cn1` (racemic), the Ratio Ki in the assay on PC-12 [2] was 140; with PC-12 [3] it was 76.
